Reference: US20260007684A1, “AMIDE DERIVATIVES FOR INHIBITING NLRP3 AND USES THEREOF” (Ventus Therapeutics U.S., Inc., priority 2023, published 2026)

Sequences of proteins named here, by UniProt entry; tags and fusion partners are left off.
UniProt Q96P20, whole entry: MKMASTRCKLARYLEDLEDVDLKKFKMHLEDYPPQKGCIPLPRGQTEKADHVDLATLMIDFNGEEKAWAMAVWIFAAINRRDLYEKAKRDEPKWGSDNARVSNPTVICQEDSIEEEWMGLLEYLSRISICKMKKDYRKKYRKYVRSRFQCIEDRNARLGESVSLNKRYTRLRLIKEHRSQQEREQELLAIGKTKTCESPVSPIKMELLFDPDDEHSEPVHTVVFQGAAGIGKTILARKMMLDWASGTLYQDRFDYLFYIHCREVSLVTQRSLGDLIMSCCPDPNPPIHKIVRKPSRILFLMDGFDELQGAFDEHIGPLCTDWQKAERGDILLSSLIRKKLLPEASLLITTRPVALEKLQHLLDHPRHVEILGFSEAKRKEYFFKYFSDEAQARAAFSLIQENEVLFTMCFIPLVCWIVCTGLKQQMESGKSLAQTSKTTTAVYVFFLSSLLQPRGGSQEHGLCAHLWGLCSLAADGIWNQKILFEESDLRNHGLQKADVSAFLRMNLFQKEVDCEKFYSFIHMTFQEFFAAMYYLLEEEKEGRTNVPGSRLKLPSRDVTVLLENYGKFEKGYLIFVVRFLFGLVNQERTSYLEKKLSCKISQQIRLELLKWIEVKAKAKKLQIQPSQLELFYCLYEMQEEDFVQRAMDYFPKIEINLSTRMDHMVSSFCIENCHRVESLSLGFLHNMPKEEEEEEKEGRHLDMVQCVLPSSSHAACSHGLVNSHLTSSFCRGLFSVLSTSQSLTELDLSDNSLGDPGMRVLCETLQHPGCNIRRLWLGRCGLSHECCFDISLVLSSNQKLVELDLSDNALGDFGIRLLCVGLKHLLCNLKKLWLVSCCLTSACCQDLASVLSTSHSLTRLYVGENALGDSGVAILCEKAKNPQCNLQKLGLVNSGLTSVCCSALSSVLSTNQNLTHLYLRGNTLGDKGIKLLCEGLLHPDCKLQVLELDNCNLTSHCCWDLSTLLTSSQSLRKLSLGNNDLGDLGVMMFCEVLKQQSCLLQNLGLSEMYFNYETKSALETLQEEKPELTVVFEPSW

Experiments:
human NLRP3 [1] = target: T1, human NLRP3 (Homo sapiens (Human), UniProt Q96P20); assay: Scintillation Proximity (SPA) NLRP3 Assay: displacement of 3H-MCC950; format: binding; conditions: read-out: SPA IC50
human NLRP3 [2] = target: T1, human NLRP3; assay: Human Whole Blood (hWB) NLRP3 Assay (LPS/ATP, IL-1β); format: cell-based; conditions: read-out: hWB IC50
human NLRP3 [3] = target: T1, human NLRP3; assay: Human PBMC NLRP3 Assay (LPS priming, ATP stimulation, cytokine measurement); format: cell-based; conditions: read-out: PBMC IC50

SMILES | IC50 (human NLRP3 [1]) [nM] | IC50 (human NLRP3 [2]) [nM] | IC50 (human NLRP3 [3]) [nM]
C[C@H]1CCN(c2nnn[nH]2)C[C@@H](NC(=O)C2(c3ccc(Cl)c(F)c3)CC2)C1 (single isomer, unassigned) | 10000 to 50000 |  | 
Cc1cc(C2(C(=O)N[C@H]3C[C@@H](C)CCN(c4nnn[nH]4)C3)CC2)ccc1C(F)(F)F (single isomer, unassigned) | 50000 to 100000 |  | 
C[C@H]1CCN(c2nnn[nH]2)C[C@H](NC(=O)C2(c3ncc(Cl)cc3O)CC2)C1 (relative stereo) | 1000 to 10000 | 2000 to 3000 | 
C[C@@H]1CCN(c2nnn[nH]2)C[C@H](NC(=O)C2(c3ncc(Cl)cc3O)CC2)C1 (relative stereo) | < 1000 | 1000 to 2000 | 10 to 100
